Reference: patent US20240408099A1, “COMBINATION […] OF KRAS G12D INHIBITORS WITH Pan ErbB FAMILY INHIBITORS” (MIRATI THERAPEUTICS, INC., priority 2021, published 2024)

Tests used:
Assay in all cases: Composite Synergy Score, Cell-Titer Glo 72 hours, dose matrix with MRTX1133
Assay type in all cases: cell-based
Conditions in all cases: combined with MRTX1133
Panc0504 = system: Panc0504
From the text: (§1) A panel of colon, pancreatic, gastric and endometrial cell lines harboring KRas G12D mutations was assembled to determine whether combining pan ErbB family inhibitors with exemplary KRas G12D inhibitors disclosed herein results in synergistic activity. The collection included SNU61 (colon, KCLB #00061), LS180 (colon, ATCC #CL-187), Panc 05.04 (pancreas, ATCC #CRL-2557), Panc 02.03 (pancreas ATCC #CRL-2553), SNU-407 (colon, AddexBio #C0009016), LS513 (colon, ATCC #CRL-2134), HPAC (pancreas, ATCC #CRL-2119), AGS (gastric, ATCC #CRL-1739), SNU-1197 (colon, KCLB #01197.1), SNU-1033 (colon, KCLB #01033), SNU-410 (pancreas, KCLB #00410), HEC-1-B (endometrial, ATCC #HTB-113), SU.86.86 (pancreas, ATCC #CRL-1837), SNU-C2B (colon, ATCC #CCL-250), Panc 08.13 (pancreas, ATCC #CRL-2551), SUIT-2 (pancreas, JCRB #JCRB1094), HPAF-II (pancreas, ATCC #CRL-1997), Panc 04.03 (pancreas, ATCC #CRL-2555), HCC-1588 (lung, KCLB #71588), GP2D (colon, SigmaAldrich #95090714), AsPC-1 (pancreas, ATCC CRL-1682), SW 1990 (pancreas, ATCC CRL-2172), and PANC-1 (pancreas, ATCC #CRL-1469).
(§2) Assays for determining the synergy score for the pairwise combinations for each cell line were performed in triplicate. Three 96-well plates plus an additional 4 wells of a separate 96-well control plate for determining baseline luminescence were seeded with 2000 cells/well of a particular cell line in a total volume of 90 μl of a suitable growth medium for that cell line, e.g., RPMI 1640 medium supplemented with 10% FBS and any cell line specific reagents need for growth. The plates were incubated overnight at 37° C. in a 5% CO2 atmosphere.
(§3) To each of the designated baseline wells, 30 μl of Cell-Titer Glo reagent (CTG; Promega Corporation) was added to each well and the plates were incubated for 20 min with shaking at room temperature. Baseline luminescence was quantitated using a BMG ClarioStar multimode plate reader according to the manufacturer's instructions.
(§4) A series of working stock 1000× drug dilutions in 100% DMSO was prepared that includes an 8 point single agent dilution of MRTX 1133 and a 5-point single agent dilution of the pan ErbB family inhibitor. The dilutions used for MRTX1133 and the pan ErbB family inhibitor varied for each individual compound but were in the range of 3- to 6-fold/serial dilution.
(§5) A 10× intermediate dosing plate was prepared in serum free RPMI medium that contains arrayed single agent dilutions MRTX1133 or the pan ErbB family inhibitor. In addition, a matrix of 40 dilution combinations of MRTX1133 and the pan ErbB family inhibitor was prepared as test samples.
(§6) To each corresponding well of the three 96-well plates seeded with the appropriate cell line above, 10 μl of each 10× single agent and the 40 combinations of the dose matrix was added and the plates were incubated for 72 hours at 37 C in 5% CO2 atmosphere. A 30 μl aliquot of Cell-Titer Glo reagent (CTG) was added to each test well, the plates were incubated for 20 min with shaking at room temperature, and luminescence was quantitated using a BMG ClarioStar multimode plate reader according to the manufacturer's instructions.
(§7) The output of the data from each mathematical model is the assignment of a relative synergy score. The data reported in Table 1 are the aggregate sum of the Loewe additivity, Bliss independence, Highest Single Agent and ZIP scores (“Composite Synergy Score”).
(§8) A custom R-script was created, integrating open source Bioconductor packages, to batch process metadata files containing experimental parameters and raw data files. Various numerical and graphical outputs were generated to summarize the data. Single agent parameters were generated using GRmetrics Clark N, Hafner M, Kouril M, Muhlich J, Niepel M, Williams E, Sorger P, Medvedovic M (2016). “GRcalculator: an online tool for calculating and mining drug response data.” doi: 10.6084/m9.figshare.4244408.v1, http://www.grcalculator.org/. […]

SNU410 = system: SNU410
From the text: as §1, §2, §3, §4, §5, §6, §7, §8

Panc0203 = system: Panc0203
From the text: as §1, §2, §3, §4, §5, §6, §7, §8

SU8684 = system: SU8684
From the text: as §1, §2, §3, §4, §5, §6, §7, §8

SW1990 = system: SW1990
From the text: as §1, §2, §3, §4, §5, §6, §7, §8

AGS = system: AGS
From the text: as §1, §2, §3, §4, §5, §6, §7, §8

SNU1197 = system: SNU1197
From the text: as §1, §2, §3, §4, §5, §6, §7, §8

Panc0813 = system: Panc0813
From the text: as §1, §2, §3, §4, §5, §6, §7, §8

Hec1B = system: Hec1B
From the text: as §1, §2, §3, §4, §5, §6, §7, §8

SNU1033 = system: SNU1033
From the text: as §1, §2, §3, §4, §5, §6, §7, §8

SNU407 = system: SNU407
From the text: as §1, §2, §3, §4, §5, §6, §7, §8

SNUC2B = system: SNUC2B
From the text: as §1, §2, §3, §4, §5, §6, §7, §8

Panc1005 = system: Panc1005
From the text: as §1, §2, §3, §4, §5, §6, §7, §8

LS513 = system: LS513
From the text: as §1, §2, §3, §4, §5, §6, §7, §8

Panc1 = system: Panc1
From the text: as §1, §2, §3, §4, §5, §6, §7, §8

GP2D = system: GP2D
From the text: as §1, §2, §3, §4, §5, §6, §7, §8

ASPC1 = system: ASPC1
From the text: as §1, §2, §3, §4, §5, §6, §7, §8

HCC1588 = system: HCC1588
From the text: as §1, §2, §3, §4, §5, §6, §7, §8

Cetuximab: anti-EGFR monoclonal antibody approved for human clinical use (ImClone)
Composite Synergy Score (Panc0504): 44
Composite Synergy Score (SNU410): −2
Composite Synergy Score (Panc0203): 47
Composite Synergy Score (SU8684): 26
Composite Synergy Score (SW1990): 16
Composite Synergy Score (AGS): 53
Composite Synergy Score (SNU1197): 6
Composite Synergy Score (Panc0813): 32
Composite Synergy Score (Hec1B): 4
Composite Synergy Score (SNU1033): 29
Composite Synergy Score (SNU407): 23
Composite Synergy Score (SNUC2B): 50
Composite Synergy Score (Panc1005): 29
Composite Synergy Score (LS513): 62
Composite Synergy Score (Panc1): −18
Composite Synergy Score (GP2D): 48
Composite Synergy Score (ASPC1): 34
Composite Synergy Score (HCC1588): −7
